Antibody variant affinities, Ab-14 heavy chain, assay B

Antigen: PDVDLGDISGINAS, a 14-residue peptide of the SARS-CoV-2 spike HR2 region.

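Designed CDR sequences, proposed from the first random library and measured here. Several design methods are mixed in this list. AlphaSeq pools MATa yeast showing the antibodies with MATalpha yeast showing the peptide. Binding brings cells together so that they mate, and sequencing counts the barcode pairs among the diploids. The ratio of observed to expected reads was calibrated, replicate by replicate, on BCL2-family standards whose Kd was known from biolayer interferometry. Mating was done six times.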

Parent: Ab-14, a human scFv built as VH, the linker GGGGSGGGGSGGGGS, VL. Only the CDRs of the heavy chain vary.
VH: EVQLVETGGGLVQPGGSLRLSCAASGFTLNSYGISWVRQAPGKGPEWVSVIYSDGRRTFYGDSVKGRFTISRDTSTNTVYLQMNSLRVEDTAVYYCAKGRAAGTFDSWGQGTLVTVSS
VL: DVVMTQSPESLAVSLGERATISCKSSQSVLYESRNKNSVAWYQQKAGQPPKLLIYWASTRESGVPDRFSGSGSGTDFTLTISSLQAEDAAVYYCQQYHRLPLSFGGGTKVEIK

The parent's heavy chain CDRs are GFTLNSYGIS, VIYSDGRRTFYGDSVK, GRAAGTFDS; each variant's own CDRs replace them letter for letter. Values are apparent Kd, the geometric mean of the replicates that gave a signal; lower means stronger binding. An entry "nd" has no value in the source: the pair was not observed among the diploids in any replicate. This suggests poor binding but is not conclusive.

CDR-H1	CDR-H2	CDR-H3	apparent Kd	replicates with signal	control signals
GFDLNEYGIS	VIYADGMRTAYADSVK	GNVAGTFDE	150 pM	6/6	0/18
GFTLNEHGIS	VIYSDGSRTFYGDSVK	GRAAGYFDS	850 nM	1/6	0/18
GFDLDEYGIS	VIYADGQRTAYADKVK	GNQAGTFDV	870 pM	6/6	0/18
GFDLNSYGIS	VIYSDGRRSFYADSVK	GRQAGTFDS	2.2 nM	6/6	0/18
GFNLNEYGIS	VIYSDGRRTFYGDSVK	GRNAGTFDS	570 pM	6/6	0/18
GFTLNLYGIS	VIYSDGRRTFYGDSVK	GREAGTFDS	12 nM	1/6	0/18
GFTLNSYGIS	VIYSDGRRTFYADSVR	GSAAGTDDS	nd	0/6	0/18
LFTLNSYGIS	VIYSDGRRTFYGDSVK	GRAAGTFDL	600 nM	2/6	0/18
GFDLNEYGIS	VIYADGRRTFYSDSVK	GQSAGTFDA	660 pM	6/6	1/18
GFPLEEYGIS	VIYADGKRTFYIDAVK	GTWGVFGLG	1.6 µM	1/6	0/18
GFTLNDYGIS	VIYSDGRRTFYGDSVK	GRIAGTFDK	8.0 nM	5/6	0/18
GFDLNSYGIS	VIYSDGRRTFYGDSVK	GQAAGTFDC	1.7 nM	6/6	0/18
GFTLNSYGSS	VIYSDGRRTFYGDSVK	GRQAGTFDS	nd	0/6	0/18
GFDLNSYGIS	VIYSDGRRTFYGDSVV	WRLAGMFDN	nd	0/6	0/18
GFTLNSYGIS	VIYSDGRRTFYSDTVK	GRAGGTWDS	nd	0/6	0/18
GFDLNSYGIS	VIYSDGRRTFYQDSVK	GKAAGTFDV	44 nM	6/6	0/18
GFTLNSYGIS	VIYSDGRRTFYGDSVK	GRFAGTYDS	nd	0/6	0/18
GFALNSYGIS	VIYSDGRRTFYDDSVK	GQEAGTFDS	nd	0/6	0/18
GFDLNEYGIS	VIYADGRRTFYADSVK	GANAGTFDV	370 pM	6/6	0/18
GFDLNEYGIS	VIYADGVRTAYADAVK	GNVAGTFDV	790 pM	6/6	0/18
GFTLNDYGIS	VIVSDGRRTFYGDSVK	GRAALTFIS	nd	0/6	0/18
GFTLNDYGIS	VIYSDGRRTFYADSVK	GRAAGTFWS	nd	0/6	0/18
GFTLLMYGIS	VIYSDGRRTFYQDSVK	GRDAGTFDS	nd	0/6	0/18
GFSLNQYGIS	VIYSDGRRTFYSDSVK	GRAAGKFDS	nd	0/6	1/18
GFSLDEYGIS	VIYADGRRTAYADDVK	GNVAGTFDV	530 pM	6/6	0/18
GFTNNSYGIS	VIYSDGRRTFYRDSVK	GRAVGTFDS	nd	0/6	0/18
GFDLDEYGIS	VIYADGMRTAYSDDVK	GNVAGTFDL	43 pM	6/6	0/18
GFNLNSYGIS	VIYSDGRRTFYGDSVK	GRAAGTFDS	10 nM	11/12	0/36
GFTKDSYGIW	VIYSDGRIAFYGDSVK	GRAAGTALS	200 nM	1/6	0/18
GFNLNEYGIS	VIYADGRRTFYADSVK	GQIAGTFTV	610 pM	5/6	0/18
GFDLNEYGIS	VIYADGQRTAYADSVK	GKVAGTFDN	100 pM	6/6	0/18

The remaining entries, values ahead:

apparent Kd	replicates with signal	control signals	CDR-H1	CDR-H2	CDR-H3
nd	0/6	0/18	GFDLNSYGIS	VIYSDGRRTFYGDSVK	GRAAGAFQS
190 nM	2/6	0/18	GFDLDSYGIS	VIYADGRRSAYHDSVK	GTNGSVSFV
1.2 nM	6/6	0/18	GFSLNSYGIS	VIYSDGRRTFYGDSVK	GITAGTFDL
880 pM	6/6	1/18	GFSLNEYGIS	VIYSDGRRTFYGDSVK	GNAAGTFDR
14 nM	6/6	0/18	GFTLNDYGIS	VIYSDGRRTFYIDSVK	GRHAGTFDS
nd	0/6	0/18	GFSIDEYGIS	VIYADGLRQHYANAVK	GEGAGTFTT
3.0 nM	6/6	0/18	GFTLNEYGIS	VIYSDGRRTFYGDSVK	GMAAGTFDS
470 nM	1/6	0/18	KFTLNSYGIS	VIYSDGRRTFYGDNFK	GRAAGRFDS
nd	0/6	0/18	GFTPNSYGIS	VIYSDGRRTSYGDSVK	GRAAGTFDS
30 nM	6/6	0/18	GFTLDSYGIS	VIYSDGRRTFYGDSVK	GRNAGTFDR
810 pM	6/6	0/18	GFDLNEYGIS	VIYADGMRTAYADSVK	GSQAGTFDV
nd	0/6	0/18	GFTLNSYGIS	VIYSDGRRTFYDDEVK	GRAAGTFDS
260 pM	6/6	1/18	GFDLNEYGIS	VIYADGRRTFYADNVK	GNVAGTFDE
41 nM	1/6	0/18	GFELNEYGIS	VIYSDGRRTFYGDSVK	GRAAVTFDT
nd	0/6	0/18	GFDLNEYGIS	VIYADGRRTAYVDSVK	GEAAGTFDL
420 pM	6/6	0/18	GFDLNEYGIS	VIYADGRRTFYSDSVK	GEVAGTFVN
nd	0/6	0/18	GFNLNEYGIS	VIYADGRRRAVIDNVK	GLVRFDFDL
3.3 nM	6/6	0/18	GFTLNEYGIS	VIYSDGRRTFYHDSVK	GRAAGTFDQ
nd	0/6	1/18	GYDIQDYGIS	VIYADGVRTAYHDSVK	GQMAGFFIT
450 nM	6/6	0/18	GFTLNSYGIS	VIYSDGRRTFYGDSVK	GNAAGTFNS
24 nM	3/6	0/18	GFTLNQYGIS	VIYSDGRRTFYSDSVK	GRAAGHFTS
nd	0/6	0/18	GTTLNSYGIS	VIYSDGLRTFMTDSVK	GEAAGTFDS
22 nM	3/6	0/18	GFDLNEYGIS	VIYADGMRTAYVDNVK	GNVAGTFDI
nd	0/6	1/18	GFTLNSYGIS	VIYSDGRRTFYLDSVK	GRAAGRFDS
nd	0/6	1/18	GFDLTEYGIS	VIYADGKRSMYTNDVK	GELGLGFVI
6.5 nM	6/6	0/18	GFSLNSYGIS	VIYSDGRRTMYGDSVK	GRTAGTFDS
8.4 nM	6/6	0/18	GFELNSYGIS	VIYSDGRRTFYSDSVK	GVAGGTFDS
5.3 nM	2/12	0/36	GFTLESYGIS	VIYSDGRRTFYGDSVK	GRAAGTFDQ
nd	0/6	0/18	GKKLDEYGIS	VIYADGKRNFYSNSVK	GGMAGGLFV
nd	0/6	1/18	GFTLRSYGIS	VIYSDGRRNFYGDSVK	GKAAGTFDT
17 nM	1/6	0/18	GFHLNSYGIS	VIYSDGRRTFYVDSVK	GKQAGTFDT

In the paper, a design with two or fewer of six values counts as a poor binder. A sequence that the file lists under several names has all its replicates pooled. Of ten entries with the parent sequence, four were seen in most replicates (averages 2.2 nM to 240 nM), three in one and three in none, so single entries are noisy. The range of this assay differs from that of the first round, and the authors advise against merging the two. Empty control strains, which show no peptide, gave a signal in 1% of pairings with all heavy chain designs; the median was 120 nM and 95% of these signals were weaker than 7.0 nM. No background was subtracted. Also given: how often the same scFv was detected with the empty control strains.

Source: Li et al. 2023 (doi:10.1038/s41467-023-39022-2), MIT Lincoln Laboratory and A-Alpha Bio; data file from the FLAb repository.